Experimental data as given in patent publication US20220323599A1, “ANTI-BCMA ANTIBODY CONJUGATE, COMPOSITIONS COMPRISING THE SAME, AND METHODS OF MAKING AND USING THE SAME” (CELGENE CORPORATION, priority 2019, published 2022).

Sequences of proteins named here, by UniProt entry; tags and fusion partners are left off. Residues count along the entry.
UniProt Q02223, 1-54 limits assumed: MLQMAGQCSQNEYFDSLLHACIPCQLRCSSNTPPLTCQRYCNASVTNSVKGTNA
UniProt Q02223, whole entry: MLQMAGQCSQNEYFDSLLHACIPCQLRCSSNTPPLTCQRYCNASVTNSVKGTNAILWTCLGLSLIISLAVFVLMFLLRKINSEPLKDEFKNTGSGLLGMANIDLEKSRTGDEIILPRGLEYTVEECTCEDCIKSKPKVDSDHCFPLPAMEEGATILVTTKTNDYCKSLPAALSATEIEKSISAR

Experiments:
[1] = target: Recombinant human BCMA ECD protein (Acro Biosystems) (human) (UniProt Q02223); experiment: competition ELISA on coated human BCMA ECD, competitor APRIL at 10 ng/ml, Experiment No. 2
[2] = target: Recombinant human BCMA ECD protein (Acro Biosystems) (human) (UniProt Q02223); experiment: competition ELISA on coated human BCMA ECD, competitor APRIL at 10 ng/ml, Experiment No. 1
[3] = target: Recombinant human BCMA ECD protein (Acro Biosystems) (human) (UniProt Q02223); experiment: competition ELISA on coated human BCMA ECD, competitor BAFF at 1 ng/ml, Experiment No. 2
[4] = target: human BCMA on cells (endogenous on multiple myeloma cell lines; stably transfected 293T-hBCMA) (human) (UniProt Q02223); experiment: flow cytometry, 293T-hBCMA cells

pIC50 [1]: 8.07
pIC50 [2]: 8.17
pIC50 [3]: 8.13
pKd [4]: 8.15
Substance: Conjugate 1: anti-BCMA antibody J6M0 conjugated to maleimido-caproyl monomethyl auristatin F (mc-MMAF), surrogate ADC for GSK2857916

pIC50, pKd: −log10 of the molar value.
